Screening results: PubChem BioAssay, several laboratories
ERp5 block = inhibitors of ERp5-driven insulin aggregation, primary screen, biochemical, turbidity, absorbance 650 nm, single point; 90 min; inhibition, % at 9.99 µM; actives 0.05% (n = 350,000); AID 651711, 2012;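 active = mean replicate inhibition above about 25%, with every replicate also reaching it, limit read from the data, passing the limit was not always enough; inconclusive = only one of those two criteria met; inactive = neither criterion met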
SMARCA2 act = SMARCA2 (BRM) function activators, primary screen, cell-based, luminescence, high throughput | MG213 cells, MMTV-luciferase reporter, dexamethasone, overnight | actives 1% (n = 370,000) | AID 652017, 2013 | activation, % at 9.1 µM; in the data active = activation above about 7.8%;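 also: 0% = vehicle wells and 100% = reference activator wells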
PDI turbidity = inhibitors of human PDI, primary screen, biochemical, turbidity, single point, plate reader. inhibition, % at 10 µM. Protein disulfide-isomerase (Homo sapiens), P07237. actives 0.052% (n = 350,000). AID 588391, 2011. PDI insulin aggregation turbidity, A650, 90 min;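 active = mean inhibition across replicates of 30% or more, whatever share of single replicates reach that level; inconclusive = mean inhibition below 30% while every single replicate reaches 30%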
GSIS activator = GLuc luminescence reporter in INS-1E cells, primary screen for activators of glucose-dependent secretion of insulin; activation, % at 16.6 µM; AID 743287, 2014; INS-1E GLuc reporter insulin secretion, 2-3 h; actives 0.61% (n = 370,000);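 active = lowest replicate activation of at least 40%, so every replicate reaches that level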;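 also: 0% = median of neutral control wells and 100% = median of IBMX positive control wells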
UUG fidelity = modulators of start codon recognition fidelity in yeast; AID 602363; activity score, % at 18.7 µM; S. cerevisiae UUG-firefly luciferase reporter, luminescence/redox ratio; actives 0.13% (n = 350,000);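 active = replicate mean at a twofold rise or more, about +100% in these data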;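 note: firefly luciferase made from a UUG start codon reports start codon fidelity; reporter light over untreated wells divided by growth signal over untreated wells; some hits fall short of that in this replicate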
Rev-erbA mod = modulators of Rev-erb alpha DNA binding, primary screen, biochemical, FITC-DNA, fluorescence polarization, uHTS. Nuclear receptor subfamily 1 group D member 1 (Homo sapiens), P20393. activity, % at 10 µM. AID 1259318, 2017. actives 0.79% (n = 370,000). Rev-erbα–FITC-DNA binding, 90 min;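 active = activity above about 14%, limit read from the data; passing the limit was not always enough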;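 also: 0% = DMSO wells with 35 nM protein and 100% = DMSO wells with 750 nM protein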
Numbers without * were called inactive; ? = inconclusive; nt = no result. Shown are actives, neighbours in structure and some others; about 2.1% of the full set was active somewhere.

Sequences of proteins named here, by UniProt entry; tags and fusion partners are left off.
Protein disulfide-isomerase (Homo sapiens), P07237, UniProt P07237, whole entry, looked up: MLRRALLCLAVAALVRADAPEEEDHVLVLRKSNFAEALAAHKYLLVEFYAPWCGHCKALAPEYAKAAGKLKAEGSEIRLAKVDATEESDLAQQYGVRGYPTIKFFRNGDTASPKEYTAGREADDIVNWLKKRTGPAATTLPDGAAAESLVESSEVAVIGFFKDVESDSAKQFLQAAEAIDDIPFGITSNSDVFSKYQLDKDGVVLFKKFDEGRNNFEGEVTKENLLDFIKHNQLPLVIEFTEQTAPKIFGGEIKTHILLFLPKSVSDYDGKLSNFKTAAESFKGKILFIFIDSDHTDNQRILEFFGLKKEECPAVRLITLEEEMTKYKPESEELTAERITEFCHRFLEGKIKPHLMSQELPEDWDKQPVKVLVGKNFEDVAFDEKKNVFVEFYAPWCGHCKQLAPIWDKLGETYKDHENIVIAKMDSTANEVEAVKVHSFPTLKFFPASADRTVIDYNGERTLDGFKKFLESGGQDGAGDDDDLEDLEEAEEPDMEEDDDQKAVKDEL

Compound | ERp5 block | SMARCA2 act | PDI turbidity | GSIS activator | UUG fidelity | Rev-erbA mod
COC1/C=C/C=C(\C)Cc2cc(O)c(Cl)c(c2)N(C)C(=O)CC(OC(=O)C(C)C)C2(C)OC2C(C)C2CC1(O)NC(=O)O2 (stereo not given) | 6 | -3 | 63* | -23 | nt | 5
CC[C@H]1C2CC3[C@@H]4N(C)c5ccccc5[C@]45C[C@@H](C2C5O)N3[C@@H]1O (stereo not given in full) | nt | nt | nt | nt | nt | 0
CCC(C)[C@H]1O[C@]2(C=C[C@@H]1C)C[C@@H]1C[C@@H](C/C=C(\C)[C@@H](O[C@@H]3C[C@H](OC)[C@H](O[C@H]4C[C@H](OC)[C@@H](O)[C@H](C)O4)[C@H](C)O3)[C@@H](C)/C=C/C=C3\CO[C@@H]4[C@H](O)C(C)=C[C@@H](C(=O)O1)[C@]34O)O2 (stereo not given in full) | nt | nt | nt | nt | nt | -4
COC(=O)CCCC(NC(=S)N1CC2C[C@@H](C1)Cn1c2cccc1=O)C(=O)OC (stereo not given in full) | 0 | 3 | 3 | 40* | -22 | 2
COC(=O)CC(NC(=S)N1CC2C[C@@H](C1)Cn1c2cccc1=O)C(=O)OC (stereo not given in full) | 0 | 0 | 4 | nt | nt | -1
CC(=O)[C@H]1CCC2C3CC[C@H]4C[C@H](O)CC[C@]4(C)C3C(=O)C[C@@]21C (stereo not given in full) | nt | nt | nt | nt | nt | 1
COc1nc(NC(C)C)nc(NC(C)C)n1 | nt | -1 | -1 | 69* | -23 | -2
COC1C(O)CC(OC2CC(Oc3cc4cc5c(c(O)c4c(O)c3C)C(=O)[C@@H](OC3CC(OC4CC(OC6CC(C)(O)C(OC(C)=O)C(C)O6)C(O)C(C)O4)C(O)C(C)O3)[C@H]([C@H](OC)C(=O)C(O)[C@H](C)O)C5)OC(C)C2OC(C)=O)OC1C (stereo not given in full) | nt | nt | nt | nt | nt | -4
CN1C2C[C@H](OC(=O)[C@H](CO)c3ccccc3)CC1[C@@H](O)C2 (stereo not given in full) | nt | nt | nt | nt | nt | 2
CNc1cc(Cl)c2nonc2c1[N+](=O)[O-] | -6 | -13 | 13 | 51* | nt | 2
Cc1cc([N+](=O)[O-])c(Cl)cc1NC(=O)C(C)C | nt | 0 | 9 | 17 | nt | 3
CCN1CC2(COC(=O)c3ccccc3N)CCC(OC)C34C5CC6C(OC)CC(O)(C5C6OC)C(O)(C(OC)C23)C14 (stereo not given) | nt | nt | ? | nt | -5 | nt
CCN1C[C@]2(COC(=O)c3ccccc3N)CC[C@H](OC)C34[C@@H]5C[C@H]6[C@H](OC)[C@@H]5[C@](O)(C[C@@H]6OC)[C@@](O)([C@H]13)[C@@H](OC)[C@@H]42 | 2 | -1 | 45* | 0 | 6 | 0
COc1cccc([C@]2(O)CCCC[C@H]2CN(C)C)c1 | nt | nt | nt | nt | nt | -14
C[C@H]1CC[C@@H]2[C@@H](C)[C@H]3[C@H](C[C@H]4[C@@H]5CC=C6C[C@@H](O[C@@H]7O[C@H](CO)[C@H](O)[C@H](O[C@@H]8O[C@H](CO)[C@@H](O)[C@H](O)[C@H]8O)[C@H]7O[C@@H]7O[C@@H](C)[C@H](O)[C@@H](O)[C@H]7O)CC[C@]6(C)[C@H]5CC[C@]34C)N2C1 | 3 | -2 | nt | 50* | -3 | -4
CC1CCC(C(C)C)C(OC(=O)Cn2c(COc3ccccc3)[n+](C)c3ccccc32)C1 (stereo not given) | -4 | -8 | 1 | 154* | -8 | -7
Cc1nc2c(=O)n(C)c(=O)nc-2n(C)n1 | nt | -8 | 189* | nt | nt | -26
C[C@@H]1O[C@@H](O[C@H]2C[C@@H](O)[C@]3(CO)C4C(CC[C@]3(O)C2)[C@@]2(O)CC[C@H](C3=CC(=O)OC3)[C@@]2(C)C[C@H]4O)[C@H](O)[C@H](O)[C@H]1O (stereo not given in full) | nt | nt | nt | nt | nt | 2
CCCC[C@@H](C)C[C@@H](C)C(=O)N(C)[C@@H](CC(C)C)C(=O)N[C@H](C(=O)N(C)[C@H](C(=O)N1C[C@@H](O)C[C@H]1C(=O)N1C(=O)C=C[C@@H]1C)C(C)C)C(C)OC(C)=O (stereo not given in full) | nt | nt | 37* | nt | -12 | nt
CCN1C[C@@]2(COC)C3[C@@H](OC)[C@H]4[C@@H]1[C@]3(C(OC)C[C@H]2O)C1C[C@@]2(O)[C@H](OC(=O)c3ccccc3)C1[C@]4(OC(C)=O)[C@@H](O)[C@@H]2OC (stereo not given in full) | nt | nt | nt | nt | nt | -6
Cc1[nH]c2ccccc2c1CCNCc1cccnc1 | 2 | 0 | -2 | 48* | -13 | 2
CCOC(=O)c1c(/N=C/c2c(O)n(-c3ccc(F)cc3)c(=S)[nH]c2=O)sc2c1CCCC2 | nt | -3 | -32 | 75* | nt | -2
CC(C)=CC1C(C(=O)OC(C#N)c2cccc(Oc3ccccc3)c2)C1(C)C (stereo not given) | nt | nt | nt | nt | nt | 2
CN1CCN(CCOC2c3ccccc3CSc3ccc(Cl)cc32)CC1 (stereo not given) | nt | -2 | 32* | -34 | -1 | 0
Clc1ccc2c(c1)C(OC1CN3CCC1CC3)c1ccccc1CS2 (stereo not given) | -3 | -2 | 2 | -16 | -10 | 2
O=C1CN=C(c2ccccc2Cl)c2cc([N+](=O)[O-])ccc2N1 | nt | nt | nt | nt | nt | 8
C[C@]12CC[C@H](OC3OC(O)C(O)C(O)C3O)C=C1CCC1C2CC[C@]2(C)[C@@H](c3ccc(=O)oc3)CC[C@]12O (stereo not given in full) | nt | nt | nt | nt | nt | -4
CC(C)C[C@@H](CN)CC(=O)O | nt | nt | nt | nt | nt | 0
COc1ccc(CN2CCN(Cc3ccccc3F)CC2)cc1 | 6 | 3 | 8 | 43* | -9 | -5
CSc1ccc(CN2CCN(Cc3ccccc3Cl)CC2)cc1 | 0 | -3 | 2 | -11 | nt | -4
O=C1C(=O)c2ccccc2-c2ccccc21 | 4 | -12 | 167* | -18 | 0 | -6
C[C@]1(O)CC[C@H]2[C@@H]3CCC4=CC(=O)CC[C@]4(C)[C@@]3(F)[C@@H](O)C[C@@]21C | 11 | -3 | -5 | 80* | -4 | 1
COc1ccc(/C=N\N=C(N)N)cc1 | 2 | -4 | -4 | 6 | nt | 8
NC(N)=N/N=C/c1ccc(N(c2ccccc2)c2ccccc2)cc1 | -2 | -4 | -35 | 321* | -21 | 4

Taken from above for reference:
Compound | ERp5 block | SMARCA2 act | PDI turbidity | GSIS activator | UUG fidelity | Rev-erbA mod
O=C1C(=O)c2ccccc2-c2ccccc21 | 4 | -12 | 167* | -18 | 0 | -6
C[C@]1(O)CC[C@H]2[C@@H]3CCC4=CC(=O)CC[C@]4(C)[C@@]3(F)[C@@H](O)C[C@@]21C | 11 | -3 | -5 | 80* | -4 | 1
COc1ccc(/C=N\N=C(N)N)cc1 | 2 | -4 | -4 | 6 | nt | 8
NC(N)=N/N=C/c1ccc(N(c2ccccc2)c2ccccc2)cc1 | -2 | -4 | -35 | 321* | -21 | 4
